# Binding of CDR-mutated scFvs to a peptide of the spike HR2 region

The target is the same throughout: PDVDLGDISGINAS, from the HR2 region of SARS-CoV-2 spike.

The variants keep the heavy chain, the linker and the frameworks of Ab-14 (scFv order VH, three GGGGS repeats, VL).
VH: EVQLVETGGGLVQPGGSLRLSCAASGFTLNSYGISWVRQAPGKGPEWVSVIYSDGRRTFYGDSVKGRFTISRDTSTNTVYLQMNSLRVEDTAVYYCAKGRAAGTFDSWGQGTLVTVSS
VL: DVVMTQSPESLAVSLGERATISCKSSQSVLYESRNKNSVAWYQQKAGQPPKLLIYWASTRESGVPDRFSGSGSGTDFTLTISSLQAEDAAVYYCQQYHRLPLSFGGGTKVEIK

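Phage display of a naive human antibody library on the peptide gave the parent. In library AAYL50, one, two or three CDR residues were substituted; doubles and triples were drawn at random. The assay is AlphaSeq: two haploid yeast populations carry antibody and antigen on their surface. Mating (16 h, 30 °C) was followed by selection of diploids and sequencing of their barcodes. The ratio of observed to expected reads was calibrated, replicate by replicate, on BCL2-family standards whose Kd was known from biolayer interferometry. Mating was done three times.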

Each variant is given by its three light chain CDRs, as the data file delimits them; those of the parent are KSSQSVLYESRNKNSVA, WASTRES, QQYHRLPLS. Scale: log10 of Kd in nM, estimated from mating counts; low values are strong binders. A mean of the replicates is given; it leaves out those without a signal. "n.d." marks a missing value. The strain was present, yet no cells mated with the target were sequenced in that replicate, which points to weak or no binding.

{"CDR-L1": "KSSQSVLYESDNKNSVP", "CDR-L2": "WASTRES", "CDR-L3": "QQYHRFPLS", "log10 Kd (nM) by replicate": "n.d. 4.42 n.d.", "mean log10 Kd (nM)": "4.42", "control signals": "3 of 9 (4.06)"}
{"CDR-L1": "KSSQSVLYESRWKNSVA", "CDR-L2": "WASTREF", "CDR-L3": "QQYKRLPLS", "log10 Kd (nM) by replicate": "n.d. 4.50 3.63", "mean log10 Kd (nM)": "4.06", "control signals": "2 of 9 (3.60)"}
{"CDR-L1": "KSMQSVLYESRNKGSVA", "CDR-L2": "WASTRES", "CDR-L3": "QQYHRLPLS", "log10 Kd (nM) by replicate": "1.93 2.38 2.29", "mean log10 Kd (nM)": "2.20", "control signals": "2 of 9 (4.70)"}
{"CDR-L1": "KSSQSVLYESRNDNSVA", "CDR-L2": "WASTEES", "CDR-L3": "QQYCRLPLS", "log10 Kd (nM) by replicate": "4.29 3.44 6.38", "mean log10 Kd (nM)": "4.70", "control signals": "6 of 9 (4.71)"}
{"CDR-L1": "KSSQSVLDESRSKMSVA", "CDR-L2": "WASTRES", "CDR-L3": "QQYHRLPLS", "log10 Kd (nM) by replicate": "1.76 1.64 1.94", "mean log10 Kd (nM)": "1.78", "control signals": "2 of 9 (4.89)"}
{"CDR-L1": "KSSQSVLYESRNKNSVM", "CDR-L2": "WASTRES", "CDR-L3": "QNYHWLPLS", "log10 Kd (nM) by replicate": "n.d. n.d. n.d.", "mean log10 Kd (nM)": "n.d.", "control signals": "1 of 9 (2.32)"}
{"CDR-L1": "KSSQSVLYESRIKNSVA", "CDR-L2": "WASTRES", "CDR-L3": "LQYYRLPLS", "log10 Kd (nM) by replicate": "0.60 0.94 0.76", "mean log10 Kd (nM)": "0.77", "control signals": "0 of 9"}
{"CDR-L1": "KSSQSVLCESRCKNSVA", "CDR-L2": "WASTRES", "CDR-L3": "QQYDRLPLS", "log10 Kd (nM) by replicate": "3.53 n.d. 3.76", "mean log10 Kd (nM)": "3.65", "control signals": "0 of 9"}
{"CDR-L1": "KSSQDVLYESRHKNSKA", "CDR-L2": "WASTRES", "CDR-L3": "QQYHRLPLS", "log10 Kd (nM) by replicate": "n.d. n.d. 3.24", "mean log10 Kd (nM)": "3.24", "control signals": "0 of 9"}
{"CDR-L1": "KSSQSVLYESDNKNSVI", "CDR-L2": "WASTRES", "CDR-L3": "QQYHRLPLS", "log10 Kd (nM) by replicate": "n.d. n.d. n.d.", "mean log10 Kd (nM)": "n.d.", "control signals": "1 of 9 (4.02)"}
{"CDR-L1": "KSSQSVLYESRNKNSVA", "CDR-L2": "KASTRES", "CDR-L3": "QQFCRLPLS", "log10 Kd (nM) by replicate": "n.d. n.d. n.d.", "mean log10 Kd (nM)": "n.d.", "control signals": "0 of 9"}
{"CDR-L1": "KGSQPVVYESRNKNSVA", "CDR-L2": "WASTRES", "CDR-L3": "QQYHRLPLS", "log10 Kd (nM) by replicate": "1.29 1.52 2.00", "mean log10 Kd (nM)": "1.60", "control signals": "3 of 9 (3.92)"}
{"CDR-L1": "KSSQSVLHESRAKNSVA", "CDR-L2": "EASTRES", "CDR-L3": "QQYHRLPLS", "log10 Kd (nM) by replicate": "0.05 0.32 0.10", "mean log10 Kd (nM)": "0.16", "control signals": "1 of 9 (4.12)"}
{"CDR-L1": "KSSQSVLYESRNKNSVA", "CDR-L2": "WASTRES", "CDR-L3": "QQYHRLPSS", "log10 Kd (nM) by replicate": "1.50 1.44 1.29", "mean log10 Kd (nM)": "1.41", "control signals": "5 of 9 (4.44)"}
{"CDR-L1": "KSSAAVLYESRNKNSVA", "CDR-L2": "WASTRES", "CDR-L3": "QQTHRLPLS", "log10 Kd (nM) by replicate": "n.d. 3.39 n.d.", "mean log10 Kd (nM)": "3.39", "control signals": "3 of 9 (4.33)"}
{"CDR-L1": "KSSQSHLYETRNKNSVA", "CDR-L2": "NASTRES", "CDR-L3": "QQYHRLPLS", "log10 Kd (nM) by replicate": "0.02 0.30 0.21", "mean log10 Kd (nM)": "0.18", "control signals": "0 of 9"}
{"CDR-L1": "KSSQSHLYESRIKNSVA", "CDR-L2": "WASTRET", "CDR-L3": "QQYHRLPLS", "log10 Kd (nM) by replicate": "0.80 1.04 1.13", "mean log10 Kd (nM)": "0.99", "control signals": "0 of 9"}
{"CDR-L1": "KSSQSVVYESRNKNAVA", "CDR-L2": "WASTRES", "CDR-L3": "QQHHRLPLS", "log10 Kd (nM) by replicate": "2.51 n.d. 2.72", "mean log10 Kd (nM)": "2.62", "control signals": "0 of 9"}
{"CDR-L1": "KSSQSVLYESRNGNSVA", "CDR-L2": "WASTLES", "CDR-L3": "CQYHRLPLS", "log10 Kd (nM) by replicate": "n.d. n.d. n.d.", "mean log10 Kd (nM)": "n.d.", "control signals": "0 of 9"}
{"CDR-L1": "KSSQSVLYESRNKNSRY", "CDR-L2": "WASTRES", "CDR-L3": "QQSHRLPLS", "log10 Kd (nM) by replicate": "n.d. n.d. n.d.", "mean log10 Kd (nM)": "n.d.", "control signals": "0 of 9"}
{"CDR-L1": "KSSQSVLYNNRNKNSVA", "CDR-L2": "WASTRES", "CDR-L3": "QQYHRLPLS", "log10 Kd (nM) by replicate": "0.86 1.06 1.00", "mean log10 Kd (nM)": "0.97", "control signals": "0 of 9"}
{"CDR-L1": "FSSQSVLIESRNKNSVA", "CDR-L2": "WASCRES", "CDR-L3": "QQYHRLPLS", "log10 Kd (nM) by replicate": "2.39 2.24 2.02", "mean log10 Kd (nM)": "2.21", "control signals": "0 of 9"}
{"CDR-L1": "KSSQSVLYESDNKNSVA", "CDR-L2": "WASTRES", "CDR-L3": "QQYHRLYTS", "log10 Kd (nM) by replicate": "4.07 n.d. n.d.", "mean log10 Kd (nM)": "4.07", "control signals": "2 of 9 (3.71)"}
{"CDR-L1": "KSSQSVLYESRNKNSVA", "CDR-L2": "WGSTRES", "CDR-L3": "QQNHRLPNS", "log10 Kd (nM) by replicate": "n.d. n.d. 3.61", "mean log10 Kd (nM)": "3.61", "control signals": "1 of 9 (3.90)"}
{"CDR-L1": "KSSQSVLYESRNKNSVA", "CDR-L2": "WASTRES", "CDR-L3": "TQYHWLPLF", "log10 Kd (nM) by replicate": "5.17 4.48 n.d.", "mean log10 Kd (nM)": "4.82", "control signals": "5 of 9 (5.17)"}
{"CDR-L1": "KSSQSMLYPSRNKNSVA", "CDR-L2": "WASTRIS", "CDR-L3": "QQYHRLPLS", "log10 Kd (nM) by replicate": "1.22 1.25 1.41", "mean log10 Kd (nM)": "1.29", "control signals": "2 of 9 (3.30)"}
{"CDR-L1": "KSSQSVLCESRNKNSVA", "CDR-L2": "WASTVES", "CDR-L3": "QQYHRLHLS", "log10 Kd (nM) by replicate": "n.d. n.d. n.d.", "mean log10 Kd (nM)": "n.d.", "control signals": "1 of 9 (5.08)"}
{"CDR-L1": "KSSDSVLYESRNKNSVA", "CDR-L2": "WAQTRES", "CDR-L3": "QQIHRLPLS", "log10 Kd (nM) by replicate": "3.31 3.17 3.87", "mean log10 Kd (nM)": "3.45", "control signals": "2 of 9 (4.47)"}
{"CDR-L1": "LSSQSVLYCSRNKNSVA", "CDR-L2": "WASTRES", "CDR-L3": "QQYHRLKLS", "log10 Kd (nM) by replicate": "n.d. 3.34 n.d.", "mean log10 Kd (nM)": "3.34", "control signals": "1 of 9 (4.12)"}
{"CDR-L1": "KFSQSVQMESRNKNSVA", "CDR-L2": "WASTRES", "CDR-L3": "QQYHRLPLS", "log10 Kd (nM) by replicate": "1.12 1.41 1.38", "mean log10 Kd (nM)": "1.30", "control signals": "3 of 9 (4.71)"}

The closing 3 entries, repeated:

CDR-L1	CDR-L2	CDR-L3	log10 Kd (nM) by replicate	mean log10 Kd (nM)	control signals
KSSDSVLYESRNKNSVA	WAQTRES	QQIHRLPLS	3.31 3.17 3.87	3.45	2 of 9 (4.47)
LSSQSVLYCSRNKNSVA	WASTRES	QQYHRLKLS	n.d. 3.34 n.d.	3.34	1 of 9 (4.12)
KFSQSVQMESRNKNSVA	WASTRES	QQYHRLPLS	1.12 1.41 1.38	1.30	3 of 9 (4.71)

Empty control strains, which show no peptide, gave a signal in 18% of pairings with library AAYL50; the median was 4.19 and 95% of these signals were weaker than 2.99. No background was subtracted. For each scFv, signals with the empty controls are counted beside the result, with their mean in brackets.

Source: Engelhart et al. 2022 (doi:10.1038/s41597-022-01779-4), MIT Lincoln Laboratory and A-Alpha Bio; data file from the FLAb repository.